Experimental data from article PMC7723054.
Some of the results follow.

T1: LIN28A (human?, UniProt Q9H9Z2 1-209)
T1 sequence: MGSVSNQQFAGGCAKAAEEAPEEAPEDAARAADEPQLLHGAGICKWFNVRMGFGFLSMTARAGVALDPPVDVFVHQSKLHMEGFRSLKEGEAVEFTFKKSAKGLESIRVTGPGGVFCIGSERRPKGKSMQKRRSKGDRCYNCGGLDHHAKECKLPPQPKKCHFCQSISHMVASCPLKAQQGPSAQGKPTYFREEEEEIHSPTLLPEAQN

T2: CIRBP (Homo sapiens, UniProt Q14011 1-172)
T2 sequence: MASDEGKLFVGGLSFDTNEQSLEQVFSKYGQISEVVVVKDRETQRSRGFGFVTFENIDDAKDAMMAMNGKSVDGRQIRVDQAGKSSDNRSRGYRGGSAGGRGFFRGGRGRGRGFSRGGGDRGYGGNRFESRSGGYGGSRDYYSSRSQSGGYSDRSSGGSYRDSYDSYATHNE

T3: DHX36 (Homo sapiens, UniProt Q9H2U1 1-1008)
T3 sequence: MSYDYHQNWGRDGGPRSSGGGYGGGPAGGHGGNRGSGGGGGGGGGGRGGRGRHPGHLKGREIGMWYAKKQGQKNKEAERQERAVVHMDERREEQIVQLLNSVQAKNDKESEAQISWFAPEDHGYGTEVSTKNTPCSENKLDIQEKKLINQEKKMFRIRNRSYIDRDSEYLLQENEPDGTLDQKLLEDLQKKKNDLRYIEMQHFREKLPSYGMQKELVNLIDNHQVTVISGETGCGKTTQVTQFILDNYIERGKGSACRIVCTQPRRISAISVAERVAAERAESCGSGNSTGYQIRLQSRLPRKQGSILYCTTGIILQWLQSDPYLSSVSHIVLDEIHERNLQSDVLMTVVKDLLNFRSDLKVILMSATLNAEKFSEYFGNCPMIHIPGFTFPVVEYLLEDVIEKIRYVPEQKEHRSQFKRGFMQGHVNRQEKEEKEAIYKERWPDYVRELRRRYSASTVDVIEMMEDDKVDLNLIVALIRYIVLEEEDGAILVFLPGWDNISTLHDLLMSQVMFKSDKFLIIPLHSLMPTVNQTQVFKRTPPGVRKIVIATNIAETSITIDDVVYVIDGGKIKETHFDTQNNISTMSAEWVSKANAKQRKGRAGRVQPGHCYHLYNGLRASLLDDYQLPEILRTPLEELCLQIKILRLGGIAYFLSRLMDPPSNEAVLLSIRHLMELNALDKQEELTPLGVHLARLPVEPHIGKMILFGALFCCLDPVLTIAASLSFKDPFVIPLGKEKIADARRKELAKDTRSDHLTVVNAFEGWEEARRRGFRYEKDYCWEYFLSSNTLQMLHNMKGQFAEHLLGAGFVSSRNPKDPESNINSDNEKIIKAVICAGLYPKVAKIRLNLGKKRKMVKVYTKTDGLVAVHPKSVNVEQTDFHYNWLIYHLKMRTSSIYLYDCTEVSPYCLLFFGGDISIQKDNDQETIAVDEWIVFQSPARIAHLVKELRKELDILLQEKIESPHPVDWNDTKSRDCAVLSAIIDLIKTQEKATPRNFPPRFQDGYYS


Key:
Experiment in all cases: FOREST: bead pull-down of RNA structure library v1, barcode microarray; U1A/LIN28A: 20 mM HEPES pH 7.5, 80 mM KCl, 20 mM NaCl, 10% glycerol, 2 mM DTT, 0.1 ug/uL BSA, 4 C; BG4/CIRBP/DHX36: 10 mM Tris-HCl pH 7.5, 100 mM KCl (or LiCl),; high values mean tight binding
LIN28A = target: T1, LIN28A
CIRBP = target: T2, CIRBP
DHX36 = target: T3, DHX36

Binder | binding signal (LIN28A) [z-score] | binding signal (CIRBP) [z-score] | binding signal (DHX36) [z-score]
hsa-mir-449a (structured_RNA) RNA: GGGAAGAUCAGGUCUGUAGCCACACUCAGGUGUACGAAGUUUCAGCUGGUUGAAUAUGUGAAUGGCAUCGGCUGAAGCUUCGUGCAC | 0.579 | 0.534 | -0.219
hsa-mir-410 (structured_RNA) RNA: GGGAGGGUAUCGUCAGCUCAGUGUAAUAGGUGUACGAAGUUUCAGCAGUUCGCUUUUAUUAAUGACGAAUAGCUGAAGCUUCGUGCAC | 0.572 | 0.189 | 0.0191
PARIS_ID7 (structured_RNA) RNA: GGGAUACUAGCGGAAGGAUGAUCAUUCAGGUGUACGAAGUUUCAGCUAUUACCGGUUUUCCAUUUAUGAUGGUAAUAGCUGAAGCUUCGUGCAC | 0.571 | 0.652 | -0.0159
hsa-mir-4684 (structured_RNA) RNA: GGGAGACGUUUUCAUCUGAUGUUGGAGCGGUGUACGAAGUUUCAGCAACAUACAUUUGUCUUGGUGUGUUGCUGAAGCUUCGUGCAC | 0.569 | -0.0137 | -0.118
hsa-mir-548aj-1 (structured_RNA) RNA: GGGACUAGAGCACGUGUUCAUAGAUCAUGGUGUACGAAGUUUCAGCUAUGCCAUUAAAAGUAAUGGUAAAGCUGAAGCUUCGUGCAC | 0.567 | 0.108 | -0.98
hsa-mir-4766 (structured_RNA) RNA: GGGAACGGGACGACUUUAUACUAGGACUGGUGUACGAAGUUUCAGCGUGUUUAUUUUUUACUAAAUAGGCUGAAGCUUCGUGCAC | 0.565 | 0.465 | 0.554
hsa-mir-20b (structured_RNA) RNA: GGGAAAACUUUAUGGGCGCGAUCAGCUCGGUGUACGAAGUUUCAGCCAGGUAGUUUUGGCAUGACUCUACUGGCUGAAGCUUCGUGCAC | 0.563 | 0.71 | -0.272
hsa-mir-3654 (structured_RNA) RNA: GGGAAGAGACCCAACACAGUGAGGUCGAGGUGUACGAAGUUUCAGCCAUCACUGGAAUGUUCCAGCGACUGCUGAAGCUUCGUGCAC | 0.563 | 0.00697 | 0.929
hsa-mir-3672 (structured_RNA) RNA: GGGAAUACGCGGACACGGGAACCUGUUAGGUGUACGAAGUUUCAGCUCUUAGACUAUUACAAGAGCUGAAGCUUCGUGCAC | 0.562 | -0.327 | -0.521
hsa-mir-548t (structured_RNA) RNA: GGGAGCCGAACUACCGUAACUCUCGGCAGGUGUACGAAGUUUCAGCUUUUGCAAUUUUUUAAUGACAAAAGCUGAAGCUUCGUGCAC | 0.56 | -0.443 | -0.0175
hsa-mir-331 (structured_RNA) RNA: GGGAGACGCGGAAUGACAUAUGAGUUUAGGUGUACGAAGUUUCAGCGGAUCCCAGAUCAAACCAGGCCCGCUGAAGCUUCGUGCAC | 0.558 | 0.974 | 0.729
hsa-mir-3191 (structured_RNA) RNA: GGGAAUGCAAUGGCGACACCCUGGUAAUGGUGUACGAAGUUUCAGCUCCACACUGACAAGGGCCGUGGGGGCUGAAGCUUCGUGCAC | 0.547 | 0.819 | -0.741
hsa-mir-1299 (structured_RNA) RNA: GGGACCACUCGGGGAAAGGACCUAUCCAGGUGUACGAAGUUUCAGCGGAAUCCUACGUGAGGGACAAUCAUUCAGACCCACGUAGCAGUGUUCUGCUGAAGCUUCGUGCAC | 0.54 | 0.414 | 0.33
hsa-mir-135a-2 (structured_RNA) RNA: GGGAAGUGCGACGUUCUUUGGUGUGUUCGGUGUACGAAGUUUCAGCGUGAUAGUAAUAAAGUCUCAUGCUGAAGCUUCGUGCAC | 0.54 | 0.198 | -0.421
hsa-mir-4445 (structured_RNA) RNA: GGGAAGAAUAUUUAGGCGAUUCCCCUGCGGUGUACGAAGUUUCAGCCGUGCAAGUUUAAGUUUUUGCACGGCUGAAGCUUCGUGCAC | 0.523 | 0.217 | -0.444
hsa-mir-4654 (structured_RNA) RNA: GGGAACCCAAUAUUGCUUGACGACACGAGGUGUACGAAGUUUCAGCCUGGGGUUGGAAUGUGACCCCAGCUGAAGCUUCGUGCAC | 0.523 | -0.185 | -0.138
hsa-mir-5684 (structured_RNA) RNA: GGGAAACAUCGGGACAAGCAAAGAUAAUGGUGUACGAAGUUUCAGCACAGAGUGAGAUGGUCUUGUUUUGUGCUGAAGCUUCGUGCAC | 0.521 | 0.903 | 0.269
hsa-mir-5047 (structured_RNA) RNA: GGGAACAUCGAAAGGAACGAGUAGCAUUGGUGUACGAAGUUUCAGCGCAUAAAAACAACUUUUGGGGGACAGGUAUGUUUUCUUGCGCUGAAGCUUCGUGCAC | 0.512 | 0.488 | 1.87
hsa-mir-3173 (structured_RNA) RNA: GGGAAACUGGUUCUGGGAUGGUCAAUUCGGUGUACGAAGUUUCAGCCUUUGUGAUUUUAUGAGAACAAAGGCUGAAGCUUCGUGCAC | 0.511 | 0.397 | -0.285
hsa-mir-502 (structured_RNA) RNA: GGGAAAGUAGUAUGACUGCCUCGCAGCUGGUGUACGAAGUUUCAGCGCUAGUGCUGGCUCAAUGCAAUGCGCUGAAGCUUCGUGCAC | 0.504 | 1.11 | 0.332
hsa-mir-8082 (structured_RNA) RNA: GGGAAAGGUUGCCCAGCUAGUACCUCACGGUGUACGAAGUUUCAGCUCUGGGGAGAGAGUCCUCUUUUCAGCGCUGAAGCUUCGUGCAC | 0.5 | 0.0866 | -0.0778
hsa-mir-3144 (structured_RNA) RNA: GGGAAAAUUGGUCAACGUGGUGCCCUGUGGUGUACGAAGUUUCAGCAUAUAGAUAUCAGCUACCUAUAUGCUGAAGCUUCGUGCAC | 0.497 | 0.898 | -0.501
hsa-mir-381 (structured_RNA) RNA: GGGAAUAGGCUUCUCCAGGCCCAAGAUAGGUGUACGAAGUUUCAGCUAUAUUCGGUUUAUUGACAUGGAAUAUAGCUGAAGCUUCGUGCAC | 0.491 | 0.278 | 0.314
hsa-mir-8076 (structured_RNA) RNA: GGGAAUGGCGCGAAUCCCCGAUACUCAUGGUGUACGAAGUUUCAGCUGUGAGAGCUACUAAGUCUUAUAGCUGAAGCUUCGUGCAC | 0.486 | -0.312 | -0.996
hsa-mir-7856 (structured_RNA) RNA: GGGAACUUCACUGAGAGUAAGGUUAAGGGGUGUACGAAGUUUCAGCGAUCCUUUGUUCUGGAUCGCUGAAGCUUCGUGCAC | 0.486 | 0.827 | 0.348
hsa-mir-4460 (structured_RNA) RNA: GGGAAGUAUACAGAUGCGUACCUCUUGAGGUGUACGAAGUUUCAGCCCUUCUCCUCUUUGCAGUGAUAAAGGAGGGCUGAAGCUUCGUGCAC | 0.483 | -0.149 | -0.834
